According to US12247064B2, “Modified ligand-gated ion channels and methods of use” (Howard Hughes Medical Institute, priority 2017, dated 2025):
pEC50: −log10 of the molar value. Like-named read-outs stand apart in the source and are kept apart here.

Sequences of proteins named here, by UniProt entry; tags and fusion partners are left off. A line that says so, or that is headed by a name, gives the form on record, which may keep a tag or linker.
UniProt P36544, with tags, fused parts or gaps Q79G: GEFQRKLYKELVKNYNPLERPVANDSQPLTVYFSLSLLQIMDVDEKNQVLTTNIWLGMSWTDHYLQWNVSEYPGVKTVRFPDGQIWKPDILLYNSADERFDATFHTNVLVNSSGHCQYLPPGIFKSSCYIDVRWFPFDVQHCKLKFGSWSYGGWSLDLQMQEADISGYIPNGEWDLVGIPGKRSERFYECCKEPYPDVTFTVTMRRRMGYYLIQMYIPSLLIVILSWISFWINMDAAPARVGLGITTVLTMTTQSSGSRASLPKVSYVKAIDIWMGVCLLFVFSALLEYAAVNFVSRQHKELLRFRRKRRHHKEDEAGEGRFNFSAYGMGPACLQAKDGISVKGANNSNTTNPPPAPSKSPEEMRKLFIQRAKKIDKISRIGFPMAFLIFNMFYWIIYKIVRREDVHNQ

Columns and labels:
[1] = molecular target: T1, α7^Q79G-GlyR^A298G (Homo sapiens, UniProt P36544, A298G/Q79G); settings: read-out: α7^Q79G-GlyR^A298G EC50; HEK cells; Table 3
[2] = molecular target: T1, α7^Q79G-GlyR^A298G; experiment: cell-based

| Structure (SMILES) | pEC50 [1] | pEC50 [2] |
| --- | --- | --- |
| O=C(NC1C2CCN(CC2)C1Cc1cccnc1)c1ccc(C(F)(F)F)cc1 (mixture of isomers) [compound 0436] | 8.22 |  |
| O=C(NC1CN2CCC1CC2)c1ccc(C(F)(F)F)nc1 (stereo not shown) [compound 0296] |  | 6.35 |
| O=C(Nc1ccccc1)N[C@@H]1CN2CCC1CC2 [compound 0353] | 8.00 |  |
| O=C(N[C@@H]1CN2CCC1CC2)c1c[nH]c2ccccc12 [compound 0676] | 8.70 |  |
